Measured values taken from paper PMC9013689, “Development of reconstructed intestinal micronucleus cytome (RICyt) assay in 3D human gut model for genotoxicity assessment of orally ingested substances” (Archives of Toxicology, 2022).
Where “and” joins values, the source holds several entries; their conditions need not be identical. Equal values may be shown once. Where a name gives a salt, the structure may show the parent alone.

Tests used:
[1] = system: 3D EpiIntestinal™ tissue
[2] = system: TK6 cells; settings: 24 h, samples across the dose range tested (four doses, not given)

[H]/N=C(/N)N/C(=N/[H])NCCc1ccccc1 [phenformin HCl, Phenformin HCl]
genotoxicity [1]: no genotoxicity was detected | cytotoxicity [2]: 50% and 60% and 35% and 40%
